Conditions: rat, in vivo, po
Description: Rats were fasted for 16 hours and then forced oral administration to the stomach was performed using an oral gastric tube for rats.
Blood was collected from the tail vein prior to administration and 15 and 30 minutes, 1, 2, 3, 4, 6, 8 and 24 hours after administration. The collected blood was centrifuged at 4° C. for 15 minutes at 3,000 rpm to obtain plasma, and then the plasma concentrations of the various antitumor agents were measured.
These concentrations were measured using gas chromatography and liquid chromatography.

For “interferon β [Comparative Test Example 4-1]”, which AUC0-24 h is on record?
Its AUC0-24 h is 3.79 IU hr/ml.

And the Cmax?
The Cmax was 1.52 IU/ml.

What about the Tmax of the same substance?
Its Tmax is 1.50 h.

From US8293274B2, “Intestinal absorptive anti-tumor agent” (Kabushiki Kaisha Sangi, priority 2005, dated 2012)
